Laboratory results from PMC2409900, “Pharmacokinetics of the nonsteroidal steroid sulphatase inhibitor 667 COUMATE and its sequestration into red blood cells in rats” (British Journal of Cancer, 2004).

Assay: Pharmacokinetic study: plasma levels after single i.v. or p.o. dose
Settings: rat, no conversion to 667 COUMARIN or other metabolites detected

NS(=O)(=O)Oc1ccc2c3c(c(=O)oc2c1)CCCCC3 [667 COUMATE, 6-oxo-8,9,10,11-tetrahydro-7H-cyclohepta-[c] [1] benzopyran-3-O-sulphamate]
resistance to metabolism in vivo: relatively resistant to metabolism
